# In PubChem BioAssay AID588436 (Broad Institute, 2011):
# This is a selection; strong and weak results do not stand in their true shares. Activity calls are given as the source filed them. No stated cut-off is given here; in the data, active means activation mostly above about 9.7% (no sharp cut-off); inconclusive means no clear call, values can overlap the other calls; inactive means mostly below about 3.7%.
# Test: inducers of Vibrio cholerae quorum light production without autoinducers, primary screen, BH1578 luxS cqsA deficient, single point (AID 588436)
# Details: V. cholerae BH1578 lux reporter, luminescence, 6 h; at 18.7 µM; active compounds read high
row,Structure (SMILES),activation
1,CCOP(=O)(Nc1ccccc1)OCC,inactive: -2.08%
2,Cc1ccc(NP(=O)(Oc2ccccc2F)Oc2ccccc2F)nc1,inactive: -0.53%
3,CN(C(=O)Cc1ccc(Cl)c(Cl)c1)[C@H]1CCCC[C@@H]1N1CCCC1,inactive: 0%
4,CC(C)(C)C(=O)NC(Sc1ccncn1)C(Cl)(Cl)Cl (stereo not given),inactive: -0.506%
5,O=[N+]([O-])c1ncn(CCn2ncnc2[N+](=O)[O-])n1,inactive: 0.758%
6,COC(=O)C1(C)COP(=O)(Nc2ccccc2)OC1 (stereo not given),inactive: -1.09%
7,O=[N+]([O-])c1cccc(NC2=NCC(CBr)S2)c1 (stereo not given),inactive: -0.2%
8,O=C(O)CNc1ccc([As](=O)(O)O)cc1,inactive: -0.612%
9,O=P1(N(CCCl)CCCl)OCCCS1 (stereo not given),inactive: -0.834%
10,O=C(Nc1cc([As](=O)(O)O)ccc1O)c1ccccc1,inactive: 0%
11,Nc1ccc([As](=O)(O)c2ccc(N)cc2)cc1,inactive: -0.787%
12,C[N+]1=C2C=CC=CC=C2SC12C([N+](=O)[O-])=CC([N+](=O)[O-])=C[C-]2[N+](=O)[O-] (stereo not given),inactive: 0%
13,CCN(/C(=N/P(=O)(N1CCOCC1)N1CCOCC1)N1CCOCC1)c1ccc(OC)cc1,inactive: -0.396%
14,CC(C)c1nc(Nc2ccccc2)n(P(=O)(N(C)C)N(C)C)n1,inactive: -5%
15,CC(C)=N/N=C(\N)N[N+](=O)[O-],inactive: -0.828%
16,CN(C)C(=O)OCCc1n(C)cc[n+]1C,inactive: 0.338%
17,CC1CCN(C(=O)Oc2c(Cl)cc(Cl)c3cccnc23)CC1,inactive: -16.7%
18,c1cc(-c2nn[nH]n2)ccc1-c1nn[nH]n1,inactive: 0%
19,COc1ccc(C2=NCC(CBr)S2)cc1 (stereo not given),inactive: 0%
20,O=[N+]([O-])c1cccc2n[nH]nc12,inactive: 8.33%
21,CC(=O)N1C2C3N(C(C)=O)C1C1N(C(C)=O)C(C(N1C(C)=O)N3C(C)=O)N2C(C)=O,inactive: 0%
22,Cc1ccc(NP(=O)(Oc2ccccc2)Oc2ccccc2)nc1,inactive: 0%

row,Structure (SMILES),activation
1,CCc1nc2c(n1)c1c(non1O)c1c2no[n+]1[O-],inactive: 0%
2,O=[N+]([O-])c1cc([N+](=O)[O-])c(CCNc2ccccc2)c([N+](=O)[O-])c1,inactive: -0.133%
3,CC(C)C(=O)NC(Sc1ccccc1)C(Cl)(Cl)Cl (stereo not given),inactive: 0%
4,O=P(Nc1nccs1)(c1ccccc1)c1ccccc1,inactive: -0.187%
5,c1nnnn1CCn1cnnn1,inactive: -0.274%
6,O=[N+]([O-])c1ccc(O)c(/C=N/Nc2ccc([N+](=O)[O-])cc2[N+](=O)[O-])c1,inactive: 0.238%
7,CC(=O)NC(SC(=S)N(C)C)C(Cl)(Cl)Cl (stereo not given),inactive: -2.7%
8,O=[N+]([O-])c1ncn(CCn2cnc([N+](=O)[O-])n2)n1,inactive: 4.36%
9,O=[As](O)(c1ccccc1)c1ccc(O)cc1,inactive: -0.629%
10,C(Cc1nn[nH]n1)Cc1nn[nH]n1,inactive: -0.313%
11,Nc1ccc([As](=O)(O)c2ccc([N+](=O)[O-])cc2)cc1,inactive: 0.468%
12,O=C(OC1CN2CCC1CC2)c1cccc(Cl)c1 (stereo not given),inactive: -0.724%
13,COc1ccc(N)c([N+](=O)[O-])c1[N+](=O)[O-],inactive: -0.416%
14,O=P(Nc1ccccn1)(c1ccc(Br)cc1)c1ccc(Br)cc1,inactive: 2.13%
15,CN(C)C1(CNC(=O)c2ccc(Cl)c(S(N)(=O)=O)c2)CCCCC1,inactive: 0%
16,O=P(Nc1nc2ccccc2s1)(c1ccccc1)c1ccccc1,inactive: 0%
17,C[C@H]1OP(=O)(Oc2ccccc2)[C@H](O)[C@H](O)[C@H]1N=[N+]=[N-] (stereo not given in full),inactive: 0%
18,COC(=O)c1cc2c(s1)N=C(c1ccccc1)N(C)P2(=O)N1CCOCC1 (stereo not given),inactive: -0.13%
19,CC(=O)NC(SC(=S)N(CC(C)C)CC(C)C)C(Cl)(Cl)Cl (stereo not given),inactive: -3.68%
20,Cc1ccc(OP(=O)(Nc2ccccn2)Oc2ccc(C)cc2)cc1,inactive: -1.39%
21,O=C(OC1CN2CCC1CC2)c1ccccc1 (stereo not given),inactive: -0.811%
22,CCC(=O)N1C2C3N(C(=O)CC)C1C1N(C(=O)CC)C(C(N1C(=O)CC)N3C(=O)CC)N2C(=O)CC,inactive: -1.82%

row,Structure (SMILES),activation
1,CC(NC(=O)COC(=O)C(O)(c1ccccc1)c1ccccc1)c1ccccc1 (stereo not given),inactive: 0.87%
2,Cc1ccccc1OP(=O)(Nc1ccccn1)Oc1ccccc1C,inactive: -0.686%
3,O=c1c2cc([N+](=O)[O-])ccc2[nH]c2c([N+](=O)[O-])cc([N+](=O)[O-])cc12,inactive: 0%
4,CN(C)C(=O)Oc1noc2ccccc12,inactive: -1.01%
5,CCNC(=S)/N=C(\N)N[N+](=O)[O-],inactive: 4.55%
6,O=C(NC1CCS(=O)(=O)C1)NP(=S)(Oc1ccccc1)Oc1ccccc1 (stereo not given),inactive: 0.0175%
7,c1ccc(-c2nn[nH]n2)c(-c2nn[nH]n2)c1,inactive: -0.171%
8,Cc1ccc(NP(=O)(Oc2cccc(C)c2)Oc2cccc(C)c2)nc1,inactive: -0.262%
9,O=P1(N(CCCl)CCCl)OCCC2CCCCN21 (stereo not given),inactive: -0.971%
10,CC(=O)c1ccc(N2CC2c2ccncc2)cc1 (stereo not given),inactive: 0%
11,N#C/C(=C\c1ccc(N(CCBr)CCBr)cc1)C(N)=O,inactive: -0.769%
12,COC(=O)C1(C)COP(=O)(NCc2ccccc2)OC1 (stereo not given),inactive: 0%
13,Cc1ccccc1CN(C)C(=O)COC(=O)C(O)(c1ccccc1)c1ccccc1,inactive: 0%
14,C[C@H]1OP(=O)(Oc2ccccc2)C[C@@H]2O[C@@H]21 (stereo not given in full),inactive: 0%
15,C[C@@H]1C=CCP(=O)(Oc2ccccc2)O1 (stereo not given in full),inactive: -2.17%
16,CC(=O)Nc1ccc([As](=O)(O)O)c(O)c1,inactive: -0.378%
17,CC(=O)Nc1ccc(Oc2c([N+](=O)[O-])cc([N+](=O)[O-])cc2[N+](=O)[O-])cc1,inactive: -0.871%
18,O=P1(Nc2nc3ccc(Cl)cc3s2)COc2ccccc2O1 (stereo not given),inactive: -11.1%
19,CCOc1ccc(C2=NCC(CBr)S2)cc1 (stereo not given),inactive: -0.141%
20,CCc1cc(O)c([N+](=O)[O-])c(C)c1[N+](=O)[O-],inactive: -13%
21,CC(C)(C)C(=O)NC(Sc1ccccc1)C(Cl)(Cl)Cl (stereo not given),inactive: -0.352%
